Reference: patent US20050153951A1, “Neurotrophic pyrrolidines and piperidines, and related compositions and methods” (priority 1999, published 2005)

Assays:
ALS patients = conditions: cited from earlier work
[1] = test system: Primary Rat Hippocampal Cells; experiment: Neurite outgrowth assay, primary rat hippocampal cells; assay type: cell-based; conditions: MAP-2 immunofluorescence; active if greater than mean DMSO-treated control on the same plate
Protocol: Hippocampal cells are dissected from the brains of embryonic day 18 rat pups and dissociated with trypsin (1 mg/mL) and trituration. Cells are seeded at 30,000 cells/well in 96-well plates filled with 100 μL MEM and 10% FBS. At 7 days in culture, cells are fixed with 4% paraformaldehyde and immuno-fluorescence is performed.
(§1) Cultures are incubated with normal horse serum (1:50; Vector Labs) for about 20 min, rinsed and then incubated with primary antibody, microtubule associated-protein 2 (anti-mouse MAP-2; 1:1000; Chemicon) for about 2 h at about RT. Following primary antibody, cultures are rinsed and incubated with fluorescein anti-mouse IgG (rat absorbed; 1:50; Vector Labs) for about 1 h. After fluorescein incubation, the cultures are rinsed and read in PBS on a fluorescent plate reader (excitation: 485 nm; emission: 530 nm). […] The response to test compound is reported as percent of DMSO-treated control.

[2] = test system: Human M17 Neuroblastoma Cells; experiment: Neurite outgrowth assay, M17 neuroblastoma cells; assay type: cell-based; conditions: MAP-2 immunofluorescence; active if greater than mean DMSO-treated control on the same plate
Protocol: M17 human neuroblastoma cells are cultured in 1:1 ratio of EMEM and Hams's F12 with 1×NEM and 10% FBS. The culture media contains 1×PSN antibiotic and is exchanged every other day, and the cells are passed in log phase near confluence.
as §1

| Structure (SMILES) | rate of survival of ALS patients (ALS patients) | Rat Hippocampal Cell Response [1] | M17 Cell Response [2] |
| --- | --- | --- | --- |
| Nc1nc2ccc(OC(F)(F)F)cc2s1 [Riluzole] | increase the rate of survival |  |  |
| CCC(C)(C)C(=O)C(=O)N1CCCC1c1csc([C@@H]2CCCN2C(=O)C(=O)C(C)(C)CC)n1 (stereo partly drawn) [Compound 43] |  | 120% of DMSO-treated control | 108% of DMSO-treated control |
